Experimental data taken from ChEMBL document CHEMBL1144851, “Opioids and efflux transporters. Part 2: P-glycoprotein substrate activity of 3- and 6-substituted morphine analogs” (J Med Chem, 2008).

The chains behind the UniProt entries cited, without tags or fusion partners. Where a name states a change or a piece, a line headed by the entry shows the natural chain unless it says otherwise.
UniProt P41145: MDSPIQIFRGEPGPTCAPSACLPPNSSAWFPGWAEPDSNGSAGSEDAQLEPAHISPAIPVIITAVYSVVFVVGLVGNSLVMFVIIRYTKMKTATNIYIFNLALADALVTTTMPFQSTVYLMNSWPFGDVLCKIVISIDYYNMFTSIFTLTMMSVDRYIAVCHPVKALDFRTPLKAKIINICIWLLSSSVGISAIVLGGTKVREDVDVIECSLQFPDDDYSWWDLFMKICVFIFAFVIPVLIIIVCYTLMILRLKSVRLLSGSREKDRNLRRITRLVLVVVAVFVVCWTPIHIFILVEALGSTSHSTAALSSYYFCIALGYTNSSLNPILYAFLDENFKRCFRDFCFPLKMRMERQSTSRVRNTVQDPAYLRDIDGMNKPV

Biological target: Kappa-type opioid receptor (Homo sapiens, UniProt P41145)
Assay: Displacement of [3H]diprenorphine from recombinant kappa opioid receptor expressed in CHO cells
Type: cell-based

## COc1ccc2c3c1O[C@H]1[C@@H](O)C=C[C@H]4[C@@H](C2)N(C)CC[C@@]341 [CODEINE]
  Ki: 25.4 µM
